Source: PubChem BioAssay
Sampled rows, rich in hits. Any-hit rate of the full collection: about 0.46%.
HCMV NEC inh = inhibitors of HCMV UL50-UL53 interaction, biochemical, HTRF. HCMV UL50-UL53 nuclear egress complex (human cytomegalovirus). normalized percent inhibition. inhibition, % (no concentration beside the values). actives 0.15% (n = 190,000); in the data active = inhibition above about 27%, passing the limit was not always enough
GIV-Gai inh = inhibitors of GIV GBA-motif binding to rat Galpha-i3; P08753; Galpha-i3/FITC-GIV peptide fluorescence polarization, 90 min; stronger effect = lower value; scaled: aluminum fluoride 0%, vehicle 100%; percent of control (FP), % (test concentration not listed); 210,000 tested, 0.42% active; AID 1224905;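 active = replicate mean at 85% of control or lower, very high polarization wells dropped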;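 note: wells of about 15 µL received 100 nL stock; the first replicate is given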
GIV-Gai FP conf = inhibitors of GIV peptide binding to Galpha-i3, confirmation, biochemical, fluorescence polarization, FITC-GIV peptide, rat Galphai3; AID 1259350, 2017; fluorescence polarization, mP at 100 µM; actives 38% (n = 580); shares compounds with GIV-Gai inh; active compounds read low;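 active = inhibition score of 15 or more, meaning 100 minus mean polarization as percent of control over three replicates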;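 note: lower mP means peptide displaced from Galphai3 so more inhibition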
GIV Gai AS conf = inhibitors of GIV binding to Galpha-i3, confirmation, orthogonal assay for GIV-Galpha-i inhibitor project, biochemical, AlphaScreen, His-GIV, GST-Galphai3; purified proteins, 90 min; active compounds read low; actives 39% (n = 580); AlphaScreen counts at 100 µM; shares compounds with GIV-Gai inh;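 active = inhibition score at or above a set limit, where the score is 100 minus the three-replicate mean percent of control signal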
Active calls of the source: *.

Cc1ccsc1C1C=C(c2cccc(Br)c2)Nc2ncnn21 (stereo unspecified) was read as GIV-Gai inh 81*, GIV-Gai FP conf 47* and GIV Gai AS conf 49839.
Screening CCc1ccc(C2=CC(c3sccc3C)n3ncnc3N2)cc1 (stereo unspecified) returned GIV-Gai inh 104.
For CCCN1CCC(NCc2ccco2)CC1 the results were HCMV NEC inh 12.
CC(NCc1ccc(F)cc1)C(=O)NC1CCCCC1 (stereo unspecified) was read as HCMV NEC inh -18 and GIV-Gai inh 101.
CC(NCc1ccc(F)cc1)C12CC3CC(CC(C3)C1)C2 (stereo unspecified) was read as GIV-Gai inh 88, GIV-Gai FP conf 62 and GIV Gai AS conf 43107.
`O=C1/C(=C/c2ccncc2)CC/C1=C\c1ccncc1` gave HCMV NEC inh -34.
For CC1C/C(=C/c2ccncc2)C(=O)/C(=C/c2ccncc2)C1 (stereo unspecified) the results were GIV-Gai inh 68*, GIV-Gai FP conf 44* and GIV Gai AS conf 8734*.
Screening CCCCC(=O)Nc1ccc(SCc2cc(=O)n3c(ncn3C(C)C)n2)cc1 returned HCMV NEC inh -42 and GIV-Gai inh 103.
For Cc1ccc(-c2ccc(C#N)c(=O)n2CC(=O)N2CCC(C(N)=O)CC2)cc1 the results were HCMV NEC inh -14 and GIV-Gai inh 107.
Cc1ccc2c(c1)c1c3n2CCCNC3CCC1 (stereo unspecified) was read as HCMV NEC inh -11 and GIV-Gai inh 102.
`Cc1ccc2c(c1)c1c3n2C=CNC3CCC1` (stereo unspecified) gave HCMV NEC inh -75, GIV-Gai inh 82*, GIV-Gai FP conf 52* and GIV Gai AS conf 25813*.
`CCn1nc(N)c2c(O)[nH]c(=O)cc21` gave GIV-Gai inh 41*, GIV-Gai FP conf 34* and GIV Gai AS conf 25115*.

The final 2 entries of the section before are carried over, then new ones follow:
`Cc1ccc2c(c1)c1c3n2C=CNC3CCC1` (stereo unspecified) gave HCMV NEC inh -75, GIV-Gai inh 82*, GIV-Gai FP conf 52* and GIV Gai AS conf 25813*.
`CCn1nc(N)c2c(O)[nH]c(=O)cc21` gave GIV-Gai inh 41*, GIV-Gai FP conf 34* and GIV Gai AS conf 25115*.
Screening CCN(CC)C(=O)CSc1nc(N)cc(=O)[nH]1 returned HCMV NEC inh -11.
`Cc1nn(-c2ccccc2)c(C)c1/C=C/C(=O)OCn1nnc2ccccc2c1=O` gave HCMV NEC inh -6.
For CN(C)c1ccc(-c2nc3c([nH]2)c(=O)n(C)c(=O)n3C)cc1 the results were GIV-Gai inh 75*, GIV-Gai FP conf 85 and GIV Gai AS conf 28569.
For Cn1c(=O)c2[nH]c(-c3ccccc3)nc2n(C)c1=O the results were HCMV NEC inh -21 and GIV-Gai inh 99.
For O=C(O)c1cccc(S(=O)(=O)/N=C2/C=C(NS(=O)(=O)c3ccccc3)C(=O)c3ccccc32)c1 the results were GIV-Gai inh 63*, GIV-Gai FP conf 62 and GIV Gai AS conf 12814*.
For O=C1C(NS(=O)(=O)c2ccccc2)=C/C(=N\S(=O)(=O)c2ccc(F)cc2)c2ccccc21 the results were GIV-Gai inh 92.
`CC(NC(=O)c1ccc(N2Cc3ccccc3Oc3ncccc32)s1)c1ccccc1` (stereo unspecified) gave GIV-Gai inh 108.
For O=C(Nc1ccc2c(c1)OCCO2)c1cccnc1Sc1ccccc1 the results were HCMV NEC inh -19 and GIV-Gai inh 103.
`Cc1nn(-c2ccc(Cl)cc2)c2sc(C(=O)NC3CCCc4ccccc43)cc12` (stereo unspecified) gave GIV-Gai inh 102.
Cc1nn(-c2ccccc2)c2sc(C(=O)NC(=S)NC3CCSC3=O)cc12 (stereo unspecified) was read as GIV-Gai inh 85*, GIV-Gai FP conf 64 and GIV Gai AS conf 15795*.
`CC1=CC(=C2N=C(c3ccccc3)OC2=O)C=C(C)O1` gave HCMV NEC inh -16, GIV-Gai inh 73*, GIV-Gai FP conf 72 and GIV Gai AS conf 40445.
For O=C1OC(c2ccccc2)=N/C1=C1/OC(=O)c2ccccc21 the results were HCMV NEC inh -20.
COc1nc2ccccc2nc1CCC(=O)Nc1ccccc1 was read as HCMV NEC inh -47 and GIV-Gai inh 110.
COc1ccc(OC)c(NC(=O)CCN2CCN(Cc3cccc4ccccc34)CC2)c1 was read as HCMV NEC inh -36 and GIV-Gai inh 103.
For Cc1ccc(N2CCN(c3ccc(C)cc3)C2c2ccc(C(C)C)cc2)cc1 the results were GIV-Gai inh 115.
CCc1nc2oc(C(=O)c3ccc(Cl)cc3)c(N)c2c2c1COC(C)(C)C2 was read as HCMV NEC inh -27, GIV-Gai inh 80*, GIV-Gai FP conf 77 and GIV Gai AS conf 46961.
`CCc1nc2oc(C(=O)c3ccccc3)c(N)c2c2c1COC(C)(C)C2` gave GIV-Gai inh 100.
For Cc1ccc2[nH]c(=O)c(-c3noc(CCC(=O)Nc4nc(C)cs4)n3)cc2c1 the results were HCMV NEC inh -52 and GIV-Gai inh 107.
Screening CCN(CC)c1ncc(C(=O)O)cc1NS(=O)(=O)c1cc(C)cc(C)c1 returned HCMV NEC inh -32, GIV-Gai inh 80*, GIV-Gai FP conf 53 and GIV Gai AS conf 26287*.
Screening CCCCN(CC)c1ncc(C(=O)O)cc1NS(=O)(=O)c1cc(C)c(C)cc1C returned HCMV NEC inh -15 and GIV-Gai inh 101.
Screening Cc1ccc(C)c(S(=O)(=O)Nc2cc(C(=O)O)cnc2N(C)C)c1 returned HCMV NEC inh -35, GIV-Gai inh 86, GIV-Gai FP conf 60 and GIV Gai AS conf 26202*.
CCN(Cc1ccccc1)c1ncc(C(=O)O)cc1NS(=O)(=O)c1cc(C)cc(C)c1 was read as HCMV NEC inh -29 and GIV-Gai inh 138.
`CN(C)c1ccc(-c2nn3c(-c4ccc5ccccc5n4)nnc3s2)cc1` gave HCMV NEC inh -34 and GIV-Gai inh 104.
`CCOC(=O)COc1ccc(C=Nc2c(C)n(C)n(-c3ccccc3)c2=O)cc1OC` gave GIV-Gai inh 120.

By substructure, the compounds so far with an aryl methoxy group.
COc1nc2ccccc2nc1CCC(=O)Nc1ccccc1 was read as HCMV NEC inh -47 and GIV-Gai inh 110.
COc1ccc(OC)c(NC(=O)CCN2CCN(Cc3cccc4ccccc34)CC2)c1 was read as HCMV NEC inh -36 and GIV-Gai inh 103.
`CCOC(=O)COc1ccc(C=Nc2c(C)n(C)n(-c3ccccc3)c2=O)cc1OC` gave GIV-Gai inh 120.

Next structures.
Screening CN1C=C(C(N)=O)C=C/C1=C(/C#N)c1nc2ccccc2s1 returned HCMV NEC inh -98 and GIV-Gai inh 91.
Cc1ccc(C(=O)c2cc(F)c(N3CCOCC3)cc2Cl)cc1C was read as GIV-Gai inh 105.
For Cc1cc(N2CCOCC2)c(F)cc1C(=O)c1ccccc1 the results were HCMV NEC inh -23, GIV-Gai inh 92, GIV-Gai FP conf 68 and GIV Gai AS conf 43945.
`CCSc1nnc2c(n1)OC(c1cc(Br)ccc1OC)Nc1ccccc1-2` (stereo unspecified) gave HCMV NEC inh -4 and GIV-Gai inh 106.
Screening CCCSc1nnc2c(n1)OC(c1ccco1)Nc1ccccc1-2 (stereo unspecified) returned HCMV NEC inh -36, GIV-Gai inh 78*, GIV-Gai FP conf 60 and GIV Gai AS conf 5688*.
Screening CSc1nnc2c(n1)OC(/C=C/c1ccccc1[N+](=O)[O-])Nc1ccccc1-2 (stereo unspecified) returned HCMV NEC inh 3 and GIV-Gai inh 105.
